OPERA 2.9 data: water solubility values

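OPERA's authors assembled the values from existing databases and did not measure them anew. The files give a single number for a compound and property, which may rest on several reports. Conditions of the individual experiments are not part of the data. Where a salt, mixture or single isomer is drawn, the source does not say that exactly this form was tested. Unmarked limits or estimates from the upstream databases cannot be ruled out.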

Water solubility is log10 of mol/L, nominally at 25 °C; higher is more soluble. "n/a" marks a cell with nothing listed here.

SMILES | name | log S (log10 mol/L)
F/C(=C(/F)C(F)(C(F)(F)F)C(F)(F)F)C(F)(F)F | (E)-Perfluoro(4-methyl-2-pentene) | -5.665
c1ccc2c(c1)Oc1ccccc1[As]2O[As]1c2ccccc2Oc2ccccc21 | 10,10'-Oxybisphenoxarsine | -5
O=C(CBr)Nc1ccc(Cl)cc1C(=O)c1ccccc1Cl | 2-Bromo-N-(4-chloro-2-(2-chlorobenzoyl)phenyl)acetamide | -6.889
CCOP(=S)(OCC)SCS(=O)(=O)C(C)(C)C | Terbufos sulfone | -2.9
CC(Cc1ccc(O)cc1)NCC(O)c1cc(O)cc(O)c1 (configuration not stated) | Fenoterol | -3.272
C=CCc1ccc2c(c1)OCO2 | Safrole | -3.33
O=C(OOC(=O)c1ccc(Cl)cc1Cl)c1ccc(Cl)cc1Cl | Bis(2,4-dichlorophenyl)peroxyanhydride | -8.279
O=C1NC(=O)N(Cc2ccccc2)C(=O)C1c1ccccc1 (configuration not stated) | 2,4,6(1H,3H,5H)-Pyrimidinetrione, 5-phenyl-1-(phenylmethyl)- | -3.206
F/C(=C\Cl)C(F)(F)F | (1Z)-1-Chloro-2,3,3,3-tetrafluoroprop-1-ene | -2.439
CCCCCCOC(N)=O | Carbamic acid, hexyl ester | -1.92
CCOP(Oc1c(C)cc(C(C)(C)C)cc1C(C)(C)C)Oc1c(C)cc(C(C)(C)C)cc1C(C)(C)C | Bis(2,4-di-tert-butyl-6-methylphenyl)ethyl phosphite | -7.4
CCCCC1(C)C(=O)NC(=O)NC1=O | 5-butyl-5-methylpyrimidine-2,4,6(1h,3h,5h)-trione | -2.042
CC(Cc1ccc(C(C)(C)C)cc1)CN1CCCCC1 (configuration not stated) | Fenpropidin | -2.71
Cc1ccc(S(=O)(=O)NCCCCCC(=O)O)cc1 | Hexanoic acid, 6-[[(4-methylphenyl)sulfonyl]amino]- | -2.91
CCC(=O)c1ccc(C)cc1 | p-Methylpropiophenone | -2.434
COP(=S)(OC)Oc1ccc(S(=O)(=O)N(C)C)cc1 | Famphur | -3.51
CCC1(C)C(=O)NC(=O)NC1=O | 5-Ethyl-5-methyl-1H,3H,5H-pyrimidin-2,4,6-trione | -1.196
CCN(C(C)=O)c1cccc(-c2ccnc3c(C#N)cnn23)c1 | Zaleplon | -3.879
CC(C)(C1CCC(O)CC1)C1CCC(O)CC1 (configuration not stated) | 4,4'-Propane-2,2-diyldicyclohexanol | -3.098
CCOP(=O)(NC(C)C)Oc1ccc(S(C)=O)c(C)c1 (configuration not stated) | Fenamiphos sulfoxide | -2.489
CCCCCCC(C)(C)c1cc(O)c2c(c1)OC(C)(C)[C@@H]1CCC(=O)C[C@@H]21 | Nabilone | -5.878
S=P(S)(Oc1ccccc1)Oc1ccccc1 | O,O-Diphenyl hydrogen phosphorodithioate | -0.071
CCC(C)(NC(=O)c1cc(Cl)c(C)c(Cl)c1)C(=O)CCl (configuration not stated) | Zoxamide | -5.69
CC(C)(C)c1ccc(O)c(-n2nc3ccccc3n2)c1 | Phenol, 2-(2H-benzotriazol-2-yl)-4-(1,1-dimethylethyl)- | -6.755
CC(=O)c1cc2c(cc1C)C(C)(C)C(C)C2C(C)C (configuration not stated) | n/a | -5.681
NC(=O)OC[C@H](O)[C@@H](O)[C@H](N)C(=O)N[C@H](C(=O)O)[C@H]1O[C@@H](n2cc(C(=O)O)c(=O)[nH]c2=O)[C@H](O)[C@@H]1O | Polyoxin D | -1.17
O=C(C(Br)Br)C(Br)(Br)Br | Pentabromoacetone | -6.656
C#C[C@]1(O)CC[C@H]2[C@@H]3C=CC4=CC(=O)CC[C@@H]4[C@H]3CC[C@@]21C | (17alpha)-17-Hydroxy-19-norpregna-4,6-dien-20-yn-3-one | -5.254
CCCCC(CC)C(=O)OOC(C)(C)C (configuration not stated) | Hexaneperoxoic acid, 2-ethyl-, 1,1-dimethylethyl ester | -3.67
FC(F)(F)I | Trifluoroiodomethane | -2.072
C[C@]12CC[C@H]3[C@@H](CC[C@@]45O[C@@H]4C(O)=C(C#N)C[C@]35C)[C@@H]1CC[C@@H]2O | Trilostane | -3.745
CC(=O)c1cc2c(cc1C)C(C)(C)C(C)C2(C)C (configuration not stated) | Phantolide | -4.703
CSC1=N[C@@](C)(c2ccccc2)C(=O)N1Nc1ccccc1 | Fenamidone | -4.6
ClC(Cl)(Cl)C(Cl)(Cl)Cl | Hexachloroethane | -3.673
CCC(C)OP(=S)([S-])OCCCCCC(C)C.CCC(C)OP(=S)([S-])OCCCCCC(C)C.[Zn+2] (configuration not stated) | n/a | -2.669
CNC(C)(C)Cc1ccccc1 | Mephentermine | -2.553
C=CCc1cc(C(C)(C)c2ccc(O)c(CC=C)c2)ccc1O | 4,4'-Isopropylidenebis(2-allylphenol) | -3.996
COc1nc(C)nc(NC(=O)NS(=O)(=O)c2ccccc2CCC(F)(F)F)n1 | Prosulfuron | -3.09
C=CCC1(C(C)CC)C(=O)NC(=O)NC1=O (configuration not stated) | Talbutal | -2.018
[O-][N+](=Nc1ccccc1)c1ccccc1 | Azoxybenzene | -5.3
CCC(C)(C)OOC1(OC)CCCCC1 | 1-Methoxy-1-[(2-methylbutan-2-yl)peroxy]cyclohexane | -3.686
CC(=O)CC(c1ccco1)c1c(O)c2ccccc2oc1=O (configuration not stated) | Coumafuryl | -2.74
COC(=O)Cc1ccccc1 | Methyl phenylacetate | -2.166
CCCCCCCCCc1ccc(OP(=O)(Oc2ccccc2)Oc2ccccc2)cc1 | 4-Nonylphenyl diphenyl phosphate | -5.77
CN(C)C(=S)SSC(=S)N(C)C | Thiram | -3.987
Cc1cc([NH3+])ccc1[NH3+].O=S(=O)([O-])[O-] | 2,5-Diaminotoluene sulfate | -1.492
C[Si](C)(C)CC(O)(Cn1cncn1)c1ccc(F)cc1 (configuration not stated) | Simeconazole | -3.71
O=C=S | Carbonyl sulfide | -1.69
Cc1ccccc1CCl | 1-(Chloromethyl)-2-methylbenzene | -3.081
CCOC(CN(CC(OCC)OCC)N=O)OCC | Ethanamine, N-(2,2-diethoxyethyl)-2,2-diethoxy-N-nitroso- | -1.606
NNC(=S)NN | Thiocarbazide | -1.28
CC(C)C(=O)OOC(C)(C)C | Propaneperoxoic acid, 2-methyl-, 1,1-dimethylethyl ester | -1.607
[Cr+3].[NH-]c1c(/N=N/c2cc([N+](=O)[O-])cc([N+](=O)[O-])c2[O-])cc(S(=O)(=O)[O-])c2ccccc12.[NH-]c1c(/N=N/c2cc([N+](=O)[O-])cc([N+](=O)[O-])c2[O-])cc(S(=O)(=O)[O-])c2ccccc12.[Na+].[Na+].[Na+] | n/a | -2.448
CCC(C)(C)OOC(C)(CC)OOC(C)(C)CC | (1-Methylpropylidene)bis(tert-butyl) peroxide | -5.796

A selection of 8 entries from above:

SMILES | name | log S (log10 mol/L)
CCCCCCCCCc1ccc(OP(=O)(Oc2ccccc2)Oc2ccccc2)cc1 | 4-Nonylphenyl diphenyl phosphate | -5.77
CCOC(CN(CC(OCC)OCC)N=O)OCC | Ethanamine, N-(2,2-diethoxyethyl)-2,2-diethoxy-N-nitroso- | -1.606
NC(=O)OC[C@H](O)[C@@H](O)[C@H](N)C(=O)N[C@H](C(=O)O)[C@H]1O[C@@H](n2cc(C(=O)O)c(=O)[nH]c2=O)[C@H](O)[C@@H]1O | Polyoxin D | -1.17
C[C@]12CC[C@H]3[C@@H](CC[C@@]45O[C@@H]4C(O)=C(C#N)C[C@]35C)[C@@H]1CC[C@@H]2O | Trilostane | -3.745
CSC1=N[C@@](C)(c2ccccc2)C(=O)N1Nc1ccccc1 | Fenamidone | -4.6
CC(=O)c1cc2c(cc1C)C(C)(C)C(C)C2C(C)C (configuration not stated) | n/a | -5.681
c1ccc2c(c1)Oc1ccccc1[As]2O[As]1c2ccccc2Oc2ccccc21 | 10,10'-Oxybisphenoxarsine | -5
CCC(=O)c1ccc(C)cc1 | p-Methylpropiophenone | -2.434

Values as listed in the OPERA 2.9 repository of K. Mansouri.